{"sequences": {"note": "The chains behind the UniProt entries cited, without tags or fusion partners. Residues count along the entry.", "UniProt Q13133, 209-447 limits assumed": "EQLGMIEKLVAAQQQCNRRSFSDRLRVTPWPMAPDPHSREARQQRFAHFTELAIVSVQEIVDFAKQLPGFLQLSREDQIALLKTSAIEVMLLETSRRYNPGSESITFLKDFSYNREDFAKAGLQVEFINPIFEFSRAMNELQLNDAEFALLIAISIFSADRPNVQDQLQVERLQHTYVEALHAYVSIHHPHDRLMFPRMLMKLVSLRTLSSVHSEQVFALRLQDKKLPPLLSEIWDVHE"}, "source": "paper PMC11997999", "about": "“Uncovering α-Selectivity for Liver X Receptor Agonists for Lipotoxic Cancer Therapies” (Journal of Medicinal Chemistry, 2025)", "target": "T1, LXRα LBD (GST) (Homo sapiens, UniProt Q13133)", "T1 construct": "5 nM LXRα LBD (GST); 10 nM LXRβ LBD (GST); purchased ThermoFisher Scientific PV4655", "experiment": "Time-resolved LXR FRET assay (LanthaScreen TR-FRET LXRα Coactivator Assay Kit)", "type": "biochemical", "protocol": "The biochemical TR-FRET assays were performed using the LanthaScreen TR-FRET LXRα Coactivator Assay Kit, goat (ThermoFisher Scientific, PV4655), and the LanthaScreen TR-FRET LXRβ assay kit, goat (ThermoFisher Scientific, PV4658), according to the manufacturer’s instructions using the following concentrations: 5 nM LXRα LBD (GST); 10 nM LXRβ LBD (GST); 500 nM fluorescein-TRAP220/DRIP-2; 200 nM fluorescein-D22; 10 nM Tb anti-GST antibody. The TR-FRET signals were measured after 6 h using a TECAN SPARK multimode microplate reader with the following settings: first excitation wavelength: 360 nm (bandwidth 35 nm), first emission wavelength: 485 nm (bandwidth 20 nm); second excitation wavelength: 360 nm (bandwidth 35 nm), second emission wavelength: 535 nm (bandwidth 25 nm); integration time: 200 μs; lag time: 100 μs; settle time: 0 ms.", "data": [{"smiles": "CC(C)(C)N1C(=O)C(Nc2ccc(N3CCCCC3)cc2)=C(c2ccccc2)C1=O", "note": "[Compound 51, 1-(tert-Butyl)-3-phenyl-4-((4-(piperidin-1-yl)phenyl)amino)-1H-pyrrole-2,5-dione]", "values": [{"measurement": "selectivity for LXRα over LXRβ (TR-FRET EC50)", "value": 4, "unit": "fold"}]}]}
